# Measured values published in patent US20250128113A1, “Decontamination Composition and Application Thereof” (published 2025).
# Test: Degradation of VX by CPO/H2O2 or H2O2 alone, GC-MS analysis
substance,measurement,setting,value
hydrogen peroxide,residual amount of VX,"H2O2 5 mM, CPO absent, after 5 min of reaction",35.72±0.77%
same,degrading rate of VX,"non-catalytic reaction with H2O2, within 5 minutes",60%
